Values of other authors, collected in publication PMC3694332 (Biopharmaceutics & drug disposition, 2009).

Columns and labels:
MRP2 = conditions: cited from earlier work
MRP1 = conditions: Panc-1 cells, 100 μM isothiocyanate, 2 h; cited from earlier work
P-gp = conditions: cited from earlier work
[1] = MCF7/ADR cells, 100 μM isothiocyanate, 2 h

SMILES: S=C=Nc1cccc2ccccc12 [NITC, α-naphthyl isothiocyanate]
- increased secretion of glutathione into the apical medium (MRP2; 5 μM NITC at apical side for 24 h, compared with control MDCK II cells): 4 fold
- investigated as substrate (S)/inhibitor (I) (MRP2; MDCK II, MRP2): 1-Napthyl isothiocyanate (S)
- increase in accumulation of daunomycin (MRP1): 3 fold
- increase in accumulation of vinblastine (MRP1): 5.5 fold
- increase in accumulation of daunomycin (P-gp; [1]): 4 fold
- increase in accumulation of vinblastine (P-gp; [1]): 40 fold
- investigated as substrate (S)/inhibitor (I) (P-gp; MCF7/ADR, P-gp): 1-Naphthyl isothiocyanate(I)
